Data: patent US9676701B2, “Cyclopropylamine derivatives useful as LSD1 inhibitors” (Oryzon Genomics, S.A., priority 2010, dated 2017)
Structures can show the parent of a compound that is named as a salt. Where two headings read alike, the source gives them in different places.

Chains of the proteins cited; added tags and fusions are not shown.
UniProt P21397, whole entry: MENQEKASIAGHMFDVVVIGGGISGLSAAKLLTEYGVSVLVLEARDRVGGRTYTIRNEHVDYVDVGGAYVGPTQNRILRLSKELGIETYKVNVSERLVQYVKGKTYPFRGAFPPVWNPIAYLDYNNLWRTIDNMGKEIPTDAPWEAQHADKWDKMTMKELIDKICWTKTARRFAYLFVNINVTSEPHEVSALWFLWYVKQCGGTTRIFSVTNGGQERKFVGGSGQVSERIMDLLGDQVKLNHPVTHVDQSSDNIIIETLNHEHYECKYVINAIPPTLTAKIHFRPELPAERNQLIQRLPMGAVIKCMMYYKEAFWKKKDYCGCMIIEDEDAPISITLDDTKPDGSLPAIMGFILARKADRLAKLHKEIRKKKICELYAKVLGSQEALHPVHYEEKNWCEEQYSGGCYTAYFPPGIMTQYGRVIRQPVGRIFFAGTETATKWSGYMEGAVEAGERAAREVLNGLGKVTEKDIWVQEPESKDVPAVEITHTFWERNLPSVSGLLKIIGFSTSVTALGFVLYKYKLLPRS
UniProt P27338, whole entry: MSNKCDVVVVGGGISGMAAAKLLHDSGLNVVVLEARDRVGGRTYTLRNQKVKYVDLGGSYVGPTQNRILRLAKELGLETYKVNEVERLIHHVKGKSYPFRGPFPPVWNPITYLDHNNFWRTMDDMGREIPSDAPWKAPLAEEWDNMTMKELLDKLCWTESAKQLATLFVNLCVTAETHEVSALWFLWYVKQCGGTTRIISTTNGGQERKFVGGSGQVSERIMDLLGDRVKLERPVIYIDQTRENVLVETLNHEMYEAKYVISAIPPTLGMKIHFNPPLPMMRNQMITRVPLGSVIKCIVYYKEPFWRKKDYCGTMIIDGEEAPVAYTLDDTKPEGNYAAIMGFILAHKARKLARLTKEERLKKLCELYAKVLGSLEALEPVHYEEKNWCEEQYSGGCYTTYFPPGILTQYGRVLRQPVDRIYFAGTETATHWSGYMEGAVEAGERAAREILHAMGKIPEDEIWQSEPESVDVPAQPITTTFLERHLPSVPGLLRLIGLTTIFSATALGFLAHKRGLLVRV

Assays:
[1] = target: T1, MAO-A (Homo sapiens (Human), UniProt P21397); conditions: read-out: MAO-A (Ki)
[2] = target: MAO-B (Homo sapiens (Human), UniProt P27338); conditions: read-out: MAO-B (Ki)
[3] = target: T1, MAO-A; test: biochemical

SMILES	Ki [1]	Ki [2]	Ki [3]
COc1cc(Cl)cc(-c2ccc([C@H]3C[C@@H]3N)cn2)c1 (relative stereo) [Example 42, (trans)-2-(6-(3-chloro-5-methoxyphenyl)pyridin-3-yl)cyclopropanamine hydrochloride]	1000 to 40000 nM	1000 to 40000 nM	
N#Cc1ccc(O)c(-c2ccc([C@H]3C[C@@H]3N)cc2)c1 (relative stereo) [Example 87, 4′-((trans)-2-aminocyclopropyl)-6-hydroxybiphenyl-3-carbonitrile hydrochloride]		1000 to 40000 nM	
N#Cc1ccc(S(=O)(=O)Nc2cccc(-c3ccc([C@H]4C[C@@H]4N)cn3)c2)cc1 (relative stereo) [Example 99, N-(3-(5-((trans)-2-aminocyclopropyl)pyridin-2-yl)phenyl)-4-cyanobenzenesulfonamide hydrochloride]		1000 to 40000 nM	100 to 1000 nM

Other lines, results leading:

Ki [1]	Ki [2]	Ki [3]	SMILES
1000 to 40000 nM	1000 to 40000 nM		N#Cc1ccccc1S(=O)(=O)Nc1cccc(-c2ccc([C@H]3C[C@@H]3N)cn2)c1 (relative stereo) [Example 101, N-(3-(5-((trans)-2-aminocyclopropyl)pyridin-2-yl)phenyl)-2-cyanobenzenesulfonamide hydrochloride]
1000 to 40000 nM	1000 to 40000 nM		N[C@H]1C[C@@H]1c1ccc(-c2cccc(NS(=O)(=O)c3ccccc3)c2)nc1 (relative stereo) [Example 64, N-(3-(5-((trans)-2-aminocyclopropyl)pyridin-2-yl)phenyl)benzenesulfonamide hydrochloride]
	1000 to 40000 nM		COc1cc(-c2ccc([C@H]3C[C@@H]3N)cn2)ccc1C (relative stereo) [Example 22, (trans)-2-(6-(3-methoxy-4-methylphenyl)pyridin-3-yl)cyclopropanamine hydrochloride]
1000 to 40000 nM	1000 to 40000 nM		CS(=O)(=O)Nc1ccc(O)c(-c2ccc([C@H]3C[C@@H]3N)cn2)c1 (relative stereo) [Example 90, N-(3-(5-((trans)-2-aminocyclopropyl)pyridin-2-yl)-4-hydroxyphenyl)methanesulfonamide hydrochloride]
1000 to 40000 nM	1000 to 40000 nM		N[C@H]1C[C@@H]1c1ccc(-c2cc(O)cc(C(F)(F)F)c2)nc1 [Example 48, 3-(5-((trans)-2-amninocyclopropyl)pyridin-2-yl)-5-(trifluoromethyl)phenol hydrochloride]
